Results: IntAct's records for PubMed 35512704

B1: RAC-alpha serine/threonine-protein kinase (Homo sapiens), P31749 (parent)
chain: MSDVAIVKEGWLHKRGEYIKTWRPRYFLLKNDGTFIGYKERPQDVDQREAPLNNFSVAQCQLMKTERPRPNTFIIRCLQWTTVIERTFHVETPEEREEWTTAIQTVADGLKKQEEEEMDFRSGSPSDNSGAEEMEVSLAKPKHRVTMNEFEYLKLLGKGTFGKVILVKEKATGRYYAMKILKKEVIVAKDEVAHTLTENRVLQNSRHPFLTALKYSFQTHDRLCFVMEYANGGELFFHLSRERVFSEDRARFYGAEIVSALDYLHSEKNVVYRDLKLENLMLDKDGHIKITDFGLCKEGIKDGATMKTFCGTPEYLAPEVLEDNDYGRAVDWWGLGVVMYEMMCGRLPFYNQDHEKLFELILMEEIRFPRTLGPEAKSLLSGLLKKDPKQRLGGGSEDAKEIMQHRFFAGIVWQHVYEKKLSPPFKPQVTSETDTRYFDEEFTAQMITITPPDQDDSMECVDSERRPHFPQFSYSASGTA

Variants of: B1
Details: with atm_human ATM

Variant	effect of a mutation on the interaction
MSDVAIVKEGWLHKRGKYIKTWRPRYFLLKNDGTFIGYKERPQDVDQREAPLNNFSVAQCQLMKTERPRPNTFIIRCLQWTTVIERTFHVETPEEREEWTTAIQTVADGLKKQEEEEMDFRSGSPSDNSGAEEMEVSLAKPKHRVTMNEFEYLKLLGKGTFGKVILVKEKATGRYYAMKILKKEVIVAKDEVAHTLTENRVLQNSRHPFLTALKYSFQTHDRLCFVMEYANGGELFFHLSRERVFSEDRARFYGAEIVSALDYLHSEKNVVYRDLKLENLMLDKDGHIKITDFGLCKEGIKDGATMKTFCGTPEYLAPEVLEDNDYGRAVDWWGLGVVMYEMMCGRLPFYNQDHEKLFELILMEEIRFPRTLGPEAKSLLSGLLKKDPKQRLGGGSEDAKEIMQHRFFAGIVWQHVYEKKLSPPFKPQVTSETDTRYFDEEFTAQMITITPPDQDDSMECVDSERRPHFPQFSYSASGTA [E17K]	causing an interaction

Variants of: B1
Details: with ajuba_human AJUBA

Variant	effect of a mutation on the interaction
MSDVAIVKEGWLHKRGKYIKTWRPRYFLLKNDGTFIGYKERPQDVDQREAPLNNFSVAQCQLMKTERPRPNTFIIRCLQWTTVIERTFHVETPEEREEWTTAIQTVADGLKKQEEEEMDFRSGSPSDNSGAEEMEVSLAKPKHRVTMNEFEYLKLLGKGTFGKVILVKEKATGRYYAMKILKKEVIVAKDEVAHTLTENRVLQNSRHPFLTALKYSFQTHDRLCFVMEYANGGELFFHLSRERVFSEDRARFYGAEIVSALDYLHSEKNVVYRDLKLENLMLDKDGHIKITDFGLCKEGIKDGATMKTFCGTPEYLAPEVLEDNDYGRAVDWWGLGVVMYEMMCGRLPFYNQDHEKLFELILMEEIRFPRTLGPEAKSLLSGLLKKDPKQRLGGGSEDAKEIMQHRFFAGIVWQHVYEKKLSPPFKPQVTSETDTRYFDEEFTAQMITITPPDQDDSMECVDSERRPHFPQFSYSASGTA [E17K]	with no effect

Variants of: B1
Details: with alk_human ALK

Variant	effect of a mutation on the interaction
MSDVAIVKEGWLHKRGKYIKTWRPRYFLLKNDGTFIGYKERPQDVDQREAPLNNFSVAQCQLMKTERPRPNTFIIRCLQWTTVIERTFHVETPEEREEWTTAIQTVADGLKKQEEEEMDFRSGSPSDNSGAEEMEVSLAKPKHRVTMNEFEYLKLLGKGTFGKVILVKEKATGRYYAMKILKKEVIVAKDEVAHTLTENRVLQNSRHPFLTALKYSFQTHDRLCFVMEYANGGELFFHLSRERVFSEDRARFYGAEIVSALDYLHSEKNVVYRDLKLENLMLDKDGHIKITDFGLCKEGIKDGATMKTFCGTPEYLAPEVLEDNDYGRAVDWWGLGVVMYEMMCGRLPFYNQDHEKLFELILMEEIRFPRTLGPEAKSLLSGLLKKDPKQRLGGGSEDAKEIMQHRFFAGIVWQHVYEKKLSPPFKPQVTSETDTRYFDEEFTAQMITITPPDQDDSMECVDSERRPHFPQFSYSASGTA [E17K]	with no effect

Variants of: B1
Details: with aph1a_human APH1A

Variant	effect of a mutation on the interaction
MSDVAIVKEGWLHKRGKYIKTWRPRYFLLKNDGTFIGYKERPQDVDQREAPLNNFSVAQCQLMKTERPRPNTFIIRCLQWTTVIERTFHVETPEEREEWTTAIQTVADGLKKQEEEEMDFRSGSPSDNSGAEEMEVSLAKPKHRVTMNEFEYLKLLGKGTFGKVILVKEKATGRYYAMKILKKEVIVAKDEVAHTLTENRVLQNSRHPFLTALKYSFQTHDRLCFVMEYANGGELFFHLSRERVFSEDRARFYGAEIVSALDYLHSEKNVVYRDLKLENLMLDKDGHIKITDFGLCKEGIKDGATMKTFCGTPEYLAPEVLEDNDYGRAVDWWGLGVVMYEMMCGRLPFYNQDHEKLFELILMEEIRFPRTLGPEAKSLLSGLLKKDPKQRLGGGSEDAKEIMQHRFFAGIVWQHVYEKKLSPPFKPQVTSETDTRYFDEEFTAQMITITPPDQDDSMECVDSERRPHFPQFSYSASGTA [E17K]	with no effect

Variants of: B1
Details: with asxl1_human ASXL1, Q8IXJ9

Variant	effect of a mutation on the interaction
MSDVAIVKEGWLHKRGKYIKTWRPRYFLLKNDGTFIGYKERPQDVDQREAPLNNFSVAQCQLMKTERPRPNTFIIRCLQWTTVIERTFHVETPEEREEWTTAIQTVADGLKKQEEEEMDFRSGSPSDNSGAEEMEVSLAKPKHRVTMNEFEYLKLLGKGTFGKVILVKEKATGRYYAMKILKKEVIVAKDEVAHTLTENRVLQNSRHPFLTALKYSFQTHDRLCFVMEYANGGELFFHLSRERVFSEDRARFYGAEIVSALDYLHSEKNVVYRDLKLENLMLDKDGHIKITDFGLCKEGIKDGATMKTFCGTPEYLAPEVLEDNDYGRAVDWWGLGVVMYEMMCGRLPFYNQDHEKLFELILMEEIRFPRTLGPEAKSLLSGLLKKDPKQRLGGGSEDAKEIMQHRFFAGIVWQHVYEKKLSPPFKPQVTSETDTRYFDEEFTAQMITITPPDQDDSMECVDSERRPHFPQFSYSASGTA [E17K]	with no effect

Variants of: B1
Details: with bakor_human ATG14

Variant	effect of a mutation on the interaction
MSDVAIVKEGWLHKRGKYIKTWRPRYFLLKNDGTFIGYKERPQDVDQREAPLNNFSVAQCQLMKTERPRPNTFIIRCLQWTTVIERTFHVETPEEREEWTTAIQTVADGLKKQEEEEMDFRSGSPSDNSGAEEMEVSLAKPKHRVTMNEFEYLKLLGKGTFGKVILVKEKATGRYYAMKILKKEVIVAKDEVAHTLTENRVLQNSRHPFLTALKYSFQTHDRLCFVMEYANGGELFFHLSRERVFSEDRARFYGAEIVSALDYLHSEKNVVYRDLKLENLMLDKDGHIKITDFGLCKEGIKDGATMKTFCGTPEYLAPEVLEDNDYGRAVDWWGLGVVMYEMMCGRLPFYNQDHEKLFELILMEEIRFPRTLGPEAKSLLSGLLKKDPKQRLGGGSEDAKEIMQHRFFAGIVWQHVYEKKLSPPFKPQVTSETDTRYFDEEFTAQMITITPPDQDDSMECVDSERRPHFPQFSYSASGTA [E17K]	with no effect

Variants of: B1
Details: with atpb_human ATP5F1B

Variant	effect of a mutation on the interaction
MSDVAIVKEGWLHKRGKYIKTWRPRYFLLKNDGTFIGYKERPQDVDQREAPLNNFSVAQCQLMKTERPRPNTFIIRCLQWTTVIERTFHVETPEEREEWTTAIQTVADGLKKQEEEEMDFRSGSPSDNSGAEEMEVSLAKPKHRVTMNEFEYLKLLGKGTFGKVILVKEKATGRYYAMKILKKEVIVAKDEVAHTLTENRVLQNSRHPFLTALKYSFQTHDRLCFVMEYANGGELFFHLSRERVFSEDRARFYGAEIVSALDYLHSEKNVVYRDLKLENLMLDKDGHIKITDFGLCKEGIKDGATMKTFCGTPEYLAPEVLEDNDYGRAVDWWGLGVVMYEMMCGRLPFYNQDHEKLFELILMEEIRFPRTLGPEAKSLLSGLLKKDPKQRLGGGSEDAKEIMQHRFFAGIVWQHVYEKKLSPPFKPQVTSETDTRYFDEEFTAQMITITPPDQDDSMECVDSERRPHFPQFSYSASGTA [E17K]	with no effect
